Columns and labels:
[1] = biological target: T1, Mineralocorticoid receptor (Homo sapiens, UniProt P08235)
T1 sequence (P08235 whole entry): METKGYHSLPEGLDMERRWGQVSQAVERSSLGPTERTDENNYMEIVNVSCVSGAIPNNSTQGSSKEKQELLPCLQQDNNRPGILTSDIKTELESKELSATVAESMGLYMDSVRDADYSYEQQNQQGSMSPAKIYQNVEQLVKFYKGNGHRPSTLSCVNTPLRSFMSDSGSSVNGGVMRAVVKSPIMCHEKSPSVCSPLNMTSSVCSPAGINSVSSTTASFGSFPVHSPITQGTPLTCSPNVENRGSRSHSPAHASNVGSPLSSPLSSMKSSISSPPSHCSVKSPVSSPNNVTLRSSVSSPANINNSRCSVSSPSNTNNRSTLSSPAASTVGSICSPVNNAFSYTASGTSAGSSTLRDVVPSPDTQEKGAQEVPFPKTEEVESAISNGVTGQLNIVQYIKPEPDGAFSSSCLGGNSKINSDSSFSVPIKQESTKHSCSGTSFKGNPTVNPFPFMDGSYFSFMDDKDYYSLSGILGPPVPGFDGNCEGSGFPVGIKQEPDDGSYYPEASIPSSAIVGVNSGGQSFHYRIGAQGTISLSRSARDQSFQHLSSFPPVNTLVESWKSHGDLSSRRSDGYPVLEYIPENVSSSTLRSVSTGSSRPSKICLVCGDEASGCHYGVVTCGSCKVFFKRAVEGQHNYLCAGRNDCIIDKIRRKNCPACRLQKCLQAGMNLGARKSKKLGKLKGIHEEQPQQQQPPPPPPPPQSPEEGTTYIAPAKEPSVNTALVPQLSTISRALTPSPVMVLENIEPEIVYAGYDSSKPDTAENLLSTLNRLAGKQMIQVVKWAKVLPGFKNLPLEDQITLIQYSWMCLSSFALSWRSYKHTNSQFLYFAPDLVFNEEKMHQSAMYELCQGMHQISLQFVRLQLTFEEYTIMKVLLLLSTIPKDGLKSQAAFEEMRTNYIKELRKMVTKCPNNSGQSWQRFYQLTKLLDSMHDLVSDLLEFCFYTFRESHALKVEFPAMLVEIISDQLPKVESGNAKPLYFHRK

[2] = biological target: T1, Mineralocorticoid receptor; remark: listed apart in the source
[3] = biological target: T2, Glucocorticoid receptor (Homo sapiens, UniProt P04150)
T2 sequence (P04150 whole entry): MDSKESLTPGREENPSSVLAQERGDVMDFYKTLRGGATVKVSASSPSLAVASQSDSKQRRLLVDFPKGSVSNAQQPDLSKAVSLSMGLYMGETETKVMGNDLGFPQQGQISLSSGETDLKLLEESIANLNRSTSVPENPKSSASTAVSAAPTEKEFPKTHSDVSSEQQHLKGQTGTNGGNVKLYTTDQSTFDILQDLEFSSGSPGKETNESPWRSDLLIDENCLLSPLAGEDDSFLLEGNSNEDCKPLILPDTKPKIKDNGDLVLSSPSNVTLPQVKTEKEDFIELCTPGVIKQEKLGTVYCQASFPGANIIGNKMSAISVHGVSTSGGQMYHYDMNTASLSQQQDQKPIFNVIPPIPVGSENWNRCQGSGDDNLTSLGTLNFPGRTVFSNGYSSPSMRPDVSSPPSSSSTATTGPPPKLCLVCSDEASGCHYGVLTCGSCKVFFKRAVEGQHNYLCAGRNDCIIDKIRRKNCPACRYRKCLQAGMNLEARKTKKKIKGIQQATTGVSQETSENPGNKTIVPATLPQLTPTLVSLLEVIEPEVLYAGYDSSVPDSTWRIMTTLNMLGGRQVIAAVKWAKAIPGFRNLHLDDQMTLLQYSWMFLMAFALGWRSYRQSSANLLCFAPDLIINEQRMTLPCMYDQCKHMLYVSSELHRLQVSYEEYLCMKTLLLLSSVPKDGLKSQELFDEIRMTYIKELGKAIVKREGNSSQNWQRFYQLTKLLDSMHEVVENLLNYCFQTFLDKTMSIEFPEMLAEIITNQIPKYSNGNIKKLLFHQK

[4] = biological target: T1, Mineralocorticoid receptor; remark: listed apart in the source

IC50 [1] | Ki [2] | Ki [3] | IC50 [4] | SMILES
50.1 nM | 3.98 nM |  |  | NC(=O)C[C@H]1COc2cc(Cl)ccc2N1C(=O)c1ccc2c(c1)NC(=O)CO2
631 nM | 50.1 nM |  |  | CNC(=O)C[C@H]1COc2ccccc2N1C(=O)c1ccc2c(c1)NC(=O)CO2
 |  | 316 nM | > 10000 nM | CNC(=O)C[C@H]1COc2cc(Cl)ccc2N1C(=O)c1ccc2c(c1)NC(=O)CO2
50.1 nM | 2.51 nM |  |  | CNC(=O)C[C@H]1COc2cc(Br)ccc2N1C(=O)c1ccc2c(c1)NC(=O)CO2
